# In PubChem BioAssay (NCATS):
# The chains behind the UniProt entries cited, without tags or fusion partners. Where a name states a change or a piece, a line headed by the entry shows the natural chain unless it says otherwise.
# UniProt Q99549: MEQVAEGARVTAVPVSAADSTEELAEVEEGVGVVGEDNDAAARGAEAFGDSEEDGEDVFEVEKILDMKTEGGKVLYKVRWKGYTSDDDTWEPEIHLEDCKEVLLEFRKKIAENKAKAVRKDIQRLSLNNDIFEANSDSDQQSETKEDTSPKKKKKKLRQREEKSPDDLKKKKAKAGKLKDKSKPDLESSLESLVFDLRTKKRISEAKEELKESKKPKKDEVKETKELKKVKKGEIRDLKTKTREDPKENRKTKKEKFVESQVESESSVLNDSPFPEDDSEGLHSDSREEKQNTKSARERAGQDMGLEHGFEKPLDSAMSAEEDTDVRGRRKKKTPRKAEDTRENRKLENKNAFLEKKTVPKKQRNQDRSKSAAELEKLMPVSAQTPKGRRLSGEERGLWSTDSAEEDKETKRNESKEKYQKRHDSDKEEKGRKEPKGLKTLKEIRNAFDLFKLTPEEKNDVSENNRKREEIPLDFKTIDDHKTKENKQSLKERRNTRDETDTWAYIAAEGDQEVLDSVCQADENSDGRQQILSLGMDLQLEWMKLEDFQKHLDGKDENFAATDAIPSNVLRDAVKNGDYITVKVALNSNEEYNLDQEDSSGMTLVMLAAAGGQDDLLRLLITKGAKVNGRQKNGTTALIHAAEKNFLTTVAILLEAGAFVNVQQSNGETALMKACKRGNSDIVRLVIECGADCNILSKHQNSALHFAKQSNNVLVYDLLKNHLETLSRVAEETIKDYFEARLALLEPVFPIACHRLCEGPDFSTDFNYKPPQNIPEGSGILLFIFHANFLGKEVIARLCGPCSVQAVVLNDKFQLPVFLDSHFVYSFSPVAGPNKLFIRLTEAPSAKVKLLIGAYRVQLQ
# “And” between values parts separate entries of the source, which are not always exact repeats. Equal entries are not always repeated. The entries are a selection whose mix differs from that of the whole data set. Inconclusive results are not listed. The source made the active and inactive calls. Calls come from the whole dose curve; as a rule, active = well fitted inhibition curve with a large enough effect; inconclusive = small, poorly fitted or top-dose-only effect; inactive = no such curve, though single readings can be large or run the other way.
# Molecular target: M-phase phosphoprotein 8 (Homo sapiens) (UniProt Q99549)
# Test: qHTS Validation Assay for Inhibitors for MPP8 Chromodomain Interactions with Methylated Histone Tails (AID 488949); note: top concentration of the series differs between compounds; nearly all actives have a fitted effect of over 55% in size
# Conditions: AlphaScreen MPP8 binding to H3K9me3 peptide; at 57.1 µM (top of the series)
# From the text: As our understanding of epigenetics expands, it is becoming clear that players in this field are potential targets for drug development. This area of epigenetic therapy has established applications for the treatment of cancer and neurological diseases. We have been involved in this field for a number of years and have performed high-throughput screens to identify the first small molecule inhibitors of protein methyltransferases. These methyltransferases target multiple substrates, and thus regulate many arms of an epigenetic pathway. The methylation of different substrates often generates docking sites for effector proteins that harbor binding domains (chromo, tudor, PHD, MBT and ANK repeats). It has been proposed that the binding sites generated for different proteins by these post-translational modifcations mediate downstream effects on chromatin. Consistent with this theory, di- and tri-methylation of histone H3K9 facilitates the binding of heterochromatin protein HP1. The HP1 protein harbors a chromodomain that is responsible for the methyl-dependent interaction between HP1 and lysine 9 of histone H3. HP1 was first described in flies as a heterochromatin associated protein that can regulate gene silencing. It harbors a chromodomain that binds H3K9me3. In addition, it harbors a chromoshadow domain that interacts with a large number of proteins that are involved in heterochromatin formation and gene repression. There are three highly related HP1 isoforms. All three variants are associated with pericentric heterochromatin and it is not clear whether they have specific or redundant functions. MPP8 is also involved in the repression of gene in euchromatic regions (unpublished data) and like HP1 its chromodomain binds H3K9me3. MPP8 harbors an ankyrin repeat region that is likely involved in binding and recruiting interacting proteins with transcriptional repressive function, much like the chromoshadow domain of HP1 does. We hypothesize that by inhibiting specific protein-protein interactions we will be able to develop compounds that block a single arm of an epigenetic pathway. The specificity attained by blocking a single protein-protein interaction will be far greater than that attained by blocking the enzyme that regulates one of many interactions. Low-affinity protein-protein interactions (Kd in the single- to double-digit micromolar range) such as those discussed here have been very difficult to assay by traditional techniques such as fluorescence polarization or fluorescence resonance energy transfer. We have developed a sensitive chemiluminescence-based assay (Quinn, et al. 2009), which serves as the starting point for this project. The following is a validation assay to identify lead compounds that can block methyl-dependent protein-protein interactions (specifically MPP8), which can be used as probes to analyze these methyl-driven interactions and perhaps even developed into targeted epigenetic therapies. Assay Provider: Mark T. Bedford, MD Anderson Screening Center PI: Austin, C.P. Screening Center: NIH Chemical Genomics Center [NCGC]
# To each well, 2 uL of MPP8 protein (final 50 nM) and 1 uL biotinylated histone peptide trimethylated at Lys9 [b-H3(1-18)K9me3] (final 50 nM) was added in 1x PBS buffer, pH 7.4, containing 0.01% Tween-20 using a nanoliter dispenser. Formation of a protein-peptide complex proceeded at room temperature for 30 min. A Kalypsys pin-tool was employed to transfer 23 nL of library compound solution in DMSO to each well. Aurintricarboxylic acid (ATA) was used as an intraplate control with a 12-point titration in duplicate. Following a 30 min incubation of the protein-peptide complex with compounds at room temperature, a mixture of 40 ug/mL each streptavidin-coated donor and nickel chelate acceptor AlphaScreen beads (final 10 ug/mL) was added in a 1 uL dispense for a final volume of 4 uL. Plates were incubated protected from the light for 30 min at room temperature. […]
# % is set by controls: 0 for no effect and ±100 for the full control effect.
row,Structure (SMILES),"activity change, negative = inhibition"
1,CN(C(=O)Cc1ccc(Cl)c(Cl)c1)[C@H]1CCCC[C@@H]1N1CCCC1,inactive: -4.38% and inactive: 7.58%
2,CN(C(=O)Cc1ccc(Cl)c(Cl)c1)[C@@H]1CC[C@]2(CCCO2)C[C@H]1N1CCCC1,inactive: 0.895%
3,CN(C(=O)Cc1ccc(Cl)c(Cl)c1)[C@@H]1CCCC[C@@H]1N1CCCC1,inactive: 12.5%
4,CN(CCCl)Cc1cc(Cl)c(NC2=NCCN2)c(Cl)c1,inactive: 3.04%
5,CN(C(=O)Cc1ccccc1)[C@@H]1CC[C@]2(CCCO2)C[C@H]1N1CCCC1,inactive: -0.56%

# Same assay, conditions: AlphaScreen MPP8 binding to H3K9me3 peptide; at 114 µM (top of the series)
row,Structure (SMILES),"activity change, negative = inhibition"
1,CN(C(=O)Cc1ccc(Cl)c(Cl)c1)[C@H]1CCCC[C@@H]1N1CCCC1,inactive: -5.17% and inactive: -1.58%
2,CN(C(=O)Cc1ccc(Cl)c(Cl)c1)[C@@H]1CC[C@]2(CCCO2)C[C@H]1N1CCCC1,inactive: -5.19%
3,CN(C(=O)Cc1ccc(Cl)c(Cl)c1)[C@@H]1CCCC[C@@H]1N1CCCC1,inactive: 10.3%
4,CN(CCCl)Cc1cc(Cl)c(NC2=NCCN2)c(Cl)c1,inactive: 0.71%
5,CN(C(=O)Cc1ccccc1)[C@@H]1CC[C@]2(CCCO2)C[C@H]1N1CCCC1,inactive: 3.31%
6,CN(C(=O)Cc1ccc(Cl)c(Cl)c1)[C@@H]1CCCC[C@H]1N1CCCC1,inactive: -2.92%
